# Yeast mating assay 1: variants of the scFv Ab-14

All variants were tested on one target, the spike HR2 peptide PDVDLGDISGINAS (SARS-CoV-2).

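Phage display of a naive human antibody library on the peptide gave the parent. Variants in AAYL50 differ from the parent at up to three CDR positions; double and triple changes were sampled at random. AlphaSeq pools MATa yeast showing the antibodies with MATalpha yeast showing the peptide. Mating (16 h, 30 °C) was followed by selection of diploids and sequencing of their barcodes. The ratio of observed to expected reads was calibrated, replicate by replicate, on BCL2-family standards whose Kd was known from biolayer interferometry. Each pool was mated in three replicate cultures.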

The variants keep the heavy chain, the linker and the frameworks of Ab-14 (scFv order VH, a 15-residue (Gly4Ser)3 linker, VL).
VH: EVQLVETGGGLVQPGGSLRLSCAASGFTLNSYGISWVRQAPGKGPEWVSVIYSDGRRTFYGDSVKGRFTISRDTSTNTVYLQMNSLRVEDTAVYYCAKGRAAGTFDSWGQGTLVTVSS
VL: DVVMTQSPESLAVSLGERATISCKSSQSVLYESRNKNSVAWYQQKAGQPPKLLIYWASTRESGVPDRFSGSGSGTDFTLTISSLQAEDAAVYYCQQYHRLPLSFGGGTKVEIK

Positions count from residue 1 of the parent VL; K24L puts L in place of K.
Affinities are written as log10 Kd with Kd in nM; a lower number is a better binder.
A mean of the replicates is given; it leaves out those without a signal.
An entry "no signal" has no value in the source: the pair was not observed among the diploids in any replicate. This suggests poor binding but is not conclusive.
Three control strains display no target. For library AAYL50, 18% of the pairings with them gave a signal, with a median of 4.19 and one signal in twenty below 2.99, so weak values seen in few replicates may be background. For each scFv, signals with the empty controls are counted beside the result.

| changes | log10 Kd (nM), mean | replicates with signal | empty controls |
|---|---|---|---|
| K24L+L30A+Y97F | 3.72 | 2/3 | 0/9 |
| K24C+W56Q+R60N | 5.23 | 1/3 | 4/9 |
| N37T+H98S+L102A | no signal | 0/3 | 0/9 |
| S33E+N37D+R99E | 1.75 | 3/3 | 5/9 |
| S33G+W56T+Q95M | 1.89 | 3/3 | 5/9 |
| A40V+Y97H+P101Y | 5.22 | 1/3 | 3/9 |
| Q27G+L30W+N35D | 0.64 | 3/3 | 1/9 |
| E32W+Q95D+Q96I | 3.09 | 3/3 | 0/9 |
| S28A+E32I+V39S | 4.59 | 2/3 | 3/9 |
| K24M+S38T+A57W | 3.36 | 1/3 | 1/9 |
| S26P+Y31A+S33W | 1.05 | 3/3 | 1/9 |
| S28P+R34N+K36N | 1.43 | 3/3 | 7/9 |
| N35Q+R99W+L100F | no signal | 0/3 | 0/9 |
| Q27G+S38W+R60D | no signal | 0/3 | 1/9 |
| N37L+S58G+L100P | 4.15 | 2/3 | 2/9 |
| S62Y+Q95M+P101E | 3.34 | 1/3 | 1/9 |
| Y31H+E61T+Q96V | 2.18 | 3/3 | 1/9 |
| W56E+R60E+L100H | 4.26 | 2/3 | 1/9 |
| Q27R+R99S | 1.32 | 3/3 | 0/9 |
| S28K+Q96P+L102C | 4.30 | 1/3 | 3/9 |
| E32T+N35S+L102R | no signal | 0/3 | 3/9 |
| K36P+E61V+L102W | 0.74 | 3/3 | 7/9 |
| R34C+V39K+E61I | 3.98 | 3/3 | 6/9 |
| K24R+Q96V+R99A | 1.18 | 3/3 | 3/9 |
| R34V+S62G+P101E | no signal | 0/3 | 0/9 |
| V29Q+R34Y+A57R | 1.13 | 3/3 | 1/9 |
| S25T+V29I+Q95D | no signal | 0/3 | 0/9 |

Further variants, results first:

| log10 Kd (nM), mean | replicates with signal | empty controls | changes |
|---|---|---|---|
| no signal | 0/3 | 1/9 | N37S+S38D+Y97Q |
| 4.61 | 1/3 | 0/9 | A40Y+W56E+S103T |
| 3.23 | 3/3 | 4/9 | S28A+E32P+S58F |
| 2.22 | 3/3 | 2/9 | S26I+S28H+A57T |
| no signal | 0/3 | 2/9 | R34F+T59M+Y97G |
| 5.08 | 1/3 | 5/9 | R34Y+Q96P |
| 0.92 | 3/3 | 1/9 | S26A+R34G+K36E |
| no signal | 0/3 | 0/9 | V29A+E32C+L102N |
| 1.58 | 3/3 | 2/9 | K24N+N35P+Q96H |
| 2.24 | 3/3 | 3/9 | E61V+H98C+P101K |
| 3.41 | 3/3 | 0/9 | L30H+A40C |
| no signal | 0/3 | 0/9 | N35F+N37V+E61S |
| 1.59 | 3/3 | 0/9 | S62E+R99Y+L100M |
| 0.11 | 3/3 | 1/9 | Q27P+K36P+S62D |
| 3.10 | 3/3 | 1/9 | K24E+W56T+A57V |
| 2.98 | 2/3 | 1/9 | R60V+H98T |
| no signal | 0/3 | 0/9 | N35S+P101M |
| 1.21 | 3/3 | 0/9 | K24G+W56N+Y97N |
| 1.42 | 3/3 | 1/9 | Y31V+R34Y+N35L |
| -0.30 | 3/3 | 1/9 | S26Y+N35V+W56D |
| no signal | 0/3 | 2/9 | V39D+Y97Q+L102R |
| 1.60 | 3/3 | 4/9 | K24C+Y31I+R34L |
| 1.98 | 3/3 | 1/9 | Y31R+L102T |
| 2.26 | 3/3 | 0/9 | S26P+L30E+S38D |
| 1.95 | 3/3 | 2/9 | T59R+H98A+R99L |
| no signal | 0/3 | 0/9 | S28P+N35F+R60W |
| 4.07 | 1/3 | 1/9 | A57F+E61C+P101L |

For reference, the parent read 0.65 as the reference entry and 1.68 as a member of this library.

The measurements come from Engelhart et al. 2022 (doi:10.1038/s41597-022-01779-4) through the FLAb antibody collection.